In patent US20200038383A1, “IMMEDIATE-RELEASE ABUSE DETERRENT CO[…] MEDICAMENTS FOR TREATING PAIN, ADD, ADHD AND OTHER SYNDROMES OR DISORDERS” (KEMPHARM, INC., priority 2016, published 2020):

Experiments:
[1] = Water solubility / feasibility of intravenous administration
[2] = Oral PK of hydrocodone conjugates in rats (plasma hydrocodone, hydromorphone, intact conjugate by LC-MS/MS)

Substance: nicotinate-hydrocodone [Nicotinate-HC]
- solubility in water (intravenous administration at oral equivalent doses) [1]: hydrophobic
- hydrocodone and hydromorphone plasma concentrations compared with Hydrocodone.BT ([2]; equivalent to 2 mg/kg hydrocodone freebase): below the respective concentrations
- hydrocodone and hydromorphone AUC values compared with Hydrocodone.BT ([2]; same dose based on hydrocodone freebase): within the range of bioequivalence
